Test results reported in PubChem BioAssay (NCI).
The list shows a part of the results, in another mix than the full data.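 Plates (96-well) were seeded with cells, treated with compound at one concentration, and incubated for 48 hours before percent growth was determined.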 Activity calls are given as the source filed them. How the source made its calls: active means growth percent below 10; inactive means the rest.

Legend:
Experiment in all cases: NCI-60 one-dose screen, 48 h (100 = growth as untreated, 0 = no growth, -100 = all killed)
Details in all cases: 10 µM unless noted
NCI-H23 lung = tested on: NCI-H23 lung
NCI-H226 lung = tested on: NCI-H226 lung
NCI-H322M lung = tested on: NCI-H322M lung
HOP-62 NSCLC = tested on: HOP-62 NSCLC
NCI-H460 lung = tested on: NCI-H460 lung
NCI-H522 lung = tested on: NCI-H522 lung
A549/ATCC NSCLC = tested on: A549/ATCC NSCLC
786-0 renal = tested on: 786-0 renal
COLO 205 colon = tested on: COLO 205 colon
DU-145 prostate = tested on: DU-145 prostate
K-562 leukemia = tested on: K-562 leukemia
MALME-3M melanoma = tested on: MALME-3M melanoma
MDA-MB-231 breast = tested on: MDA-MB-231 breast
RXF 393 renal = tested on: RXF 393 renal
SF-268 CNS = tested on: SF-268 CNS
SF-295 CNS = tested on: SF-295 CNS
SF-539 CNS = tested on: SF-539 CNS
UACC-257 melanoma = tested on: UACC-257 melanoma
M14 melanoma = tested on: M14 melanoma

Measured: growth

CCN(CCCl)c1ccc(CCC(=O)O)cc1
inactive: NCI-H23 lung 105% | NCI-H226 lung 106% | NCI-H322M lung 81.9% | HOP-62 NSCLC 93.1% | NCI-H460 lung 101% | NCI-H522 lung 71.1% | A549/ATCC NSCLC 83.6% | 786-0 renal 104% | COLO 205 colon 98% | DU-145 prostate 107% | K-562 leukemia 90.1% | MALME-3M melanoma 98.3% | MDA-MB-231 breast 112% | RXF 393 renal 110% | SF-268 CNS 102% | SF-295 CNS 100% | SF-539 CNS 106% | UACC-257 melanoma 88.7% | M14 melanoma 98.1%

O=Cc1sc(N(CCCl)CCCl)nc1Cl
inactive: NCI-H23 lung 109% | NCI-H226 lung 101% | NCI-H322M lung 111% | HOP-62 NSCLC 102% | NCI-H460 lung 104% | NCI-H522 lung 85.6% | A549/ATCC NSCLC 96.5% | 786-0 renal 106% | COLO 205 colon 104% | DU-145 prostate 112% | K-562 leukemia 100% | MALME-3M melanoma 107% | MDA-MB-231 breast 113% | RXF 393 renal 105% | SF-268 CNS 93.9% | SF-295 CNS 110% | SF-539 CNS 104% | UACC-257 melanoma 98.2% | M14 melanoma 92.2%

CCCOP(=S)(Nc1nc(N)cc(=O)[nH]1)OCCC
inactive: NCI-H23 lung 99.4% | NCI-H226 lung 93.3% | NCI-H322M lung 102% | HOP-62 NSCLC 98.8% | NCI-H460 lung 108% | NCI-H522 lung 81.3% | A549/ATCC NSCLC 106% | 786-0 renal 93.7% | COLO 205 colon 116% | DU-145 prostate 103% | K-562 leukemia 101% | MALME-3M melanoma 87.2% | MDA-MB-231 breast 99.7% | RXF 393 renal 95.8% | SF-268 CNS 98.5% | SF-295 CNS 98.9% | SF-539 CNS 95.3% | UACC-257 melanoma 78.6% | M14 melanoma 97.8%

O=P1(N(CCCl)CCCl)OCCCS1 (stereo not drawn)
inactive: NCI-H23 lung 91.2% | NCI-H226 lung 115% | NCI-H322M lung 124% | HOP-62 NSCLC 113% | NCI-H460 lung 110% | NCI-H522 lung 98.5% | A549/ATCC NSCLC 106% | 786-0 renal 105% | COLO 205 colon 126% | DU-145 prostate 111% | K-562 leukemia 107% | MALME-3M melanoma 115% | MDA-MB-231 breast 110% | RXF 393 renal 125% | SF-268 CNS 102% | SF-295 CNS 103% | SF-539 CNS 90.6% | UACC-257 melanoma 97.8% | M14 melanoma 106%

O=[As](O)(O)c1cccnc1
inactive: NCI-H23 lung 123% | NCI-H226 lung 105% | NCI-H322M lung 113% | HOP-62 NSCLC 103% | NCI-H460 lung 103% | NCI-H522 lung 107% | A549/ATCC NSCLC 103% | 786-0 renal 112% | COLO 205 colon 131% | DU-145 prostate 121% | K-562 leukemia 111% | MALME-3M melanoma 131% | MDA-MB-231 breast 118% | SF-268 CNS 109% | SF-295 CNS 102% | SF-539 CNS 94.1% | UACC-257 melanoma 112% | M14 melanoma 107%

CC(C)=N/N=C(\N)N[N+](=O)[O-]
inactive: NCI-H23 lung 95.2% | NCI-H226 lung 102% | NCI-H322M lung 120% | HOP-62 NSCLC 114% | NCI-H460 lung 110% | NCI-H522 lung 97.7% | A549/ATCC NSCLC 96% | 786-0 renal 113% | COLO 205 colon 109% | DU-145 prostate 109% | K-562 leukemia 111% | MALME-3M melanoma 105% | MDA-MB-231 breast 113% | RXF 393 renal 106% | SF-268 CNS 100% | SF-295 CNS 106% | SF-539 CNS 113% | UACC-257 melanoma 101% | M14 melanoma 111%

Fc1cccc(CNCCCl)c1
inactive: NCI-H23 lung 104% | NCI-H226 lung 101% | NCI-H322M lung 135% | HOP-62 NSCLC 103% | NCI-H460 lung 116% | NCI-H522 lung 106% | A549/ATCC NSCLC 110% | 786-0 renal 111% | COLO 205 colon 115% | DU-145 prostate 113% | K-562 leukemia 112% | MALME-3M melanoma 120% | MDA-MB-231 breast 131% | SF-268 CNS 104% | SF-295 CNS 109% | SF-539 CNS 112% | UACC-257 melanoma 106% | M14 melanoma 111%

O=C(O)CNc1ccc([As](=O)(O)O)cc1
inactive: NCI-H23 lung 118% | NCI-H226 lung 92% | NCI-H322M lung 96.3% | HOP-62 NSCLC 99.8% | NCI-H460 lung 105% | NCI-H522 lung 93.1% | A549/ATCC NSCLC 106% | 786-0 renal 101% | COLO 205 colon 121% | DU-145 prostate 106% | K-562 leukemia 92.4% | MALME-3M melanoma 86.9% | MDA-MB-231 breast 102% | SF-268 CNS 101% | SF-295 CNS 103% | SF-539 CNS 92.8% | UACC-257 melanoma 109% | M14 melanoma 104%

O=[As](O)(c1cccs1)c1cccs1
inactive: NCI-H23 lung 96.8% | NCI-H226 lung 110% | NCI-H322M lung 92.7% | HOP-62 NSCLC 87.3% | NCI-H460 lung 104% | NCI-H522 lung 81.3% | A549/ATCC NSCLC 96.4% | 786-0 renal 88.6% | COLO 205 colon 116% | DU-145 prostate 119% | K-562 leukemia 113% | MALME-3M melanoma 115% | MDA-MB-231 breast 116% | RXF 393 renal 119% | SF-268 CNS 112% | SF-295 CNS 114% | SF-539 CNS 101% | UACC-257 melanoma 105% | M14 melanoma 97.7%
